Target: ABL1 (Homo sapiens, UniProt P00519)
Experiment: SelectScreen Kinase Profiling
Format: biochemical

The chains behind the UniProt entries cited, without tags or fusion partners.
UniProt P00519, whole entry: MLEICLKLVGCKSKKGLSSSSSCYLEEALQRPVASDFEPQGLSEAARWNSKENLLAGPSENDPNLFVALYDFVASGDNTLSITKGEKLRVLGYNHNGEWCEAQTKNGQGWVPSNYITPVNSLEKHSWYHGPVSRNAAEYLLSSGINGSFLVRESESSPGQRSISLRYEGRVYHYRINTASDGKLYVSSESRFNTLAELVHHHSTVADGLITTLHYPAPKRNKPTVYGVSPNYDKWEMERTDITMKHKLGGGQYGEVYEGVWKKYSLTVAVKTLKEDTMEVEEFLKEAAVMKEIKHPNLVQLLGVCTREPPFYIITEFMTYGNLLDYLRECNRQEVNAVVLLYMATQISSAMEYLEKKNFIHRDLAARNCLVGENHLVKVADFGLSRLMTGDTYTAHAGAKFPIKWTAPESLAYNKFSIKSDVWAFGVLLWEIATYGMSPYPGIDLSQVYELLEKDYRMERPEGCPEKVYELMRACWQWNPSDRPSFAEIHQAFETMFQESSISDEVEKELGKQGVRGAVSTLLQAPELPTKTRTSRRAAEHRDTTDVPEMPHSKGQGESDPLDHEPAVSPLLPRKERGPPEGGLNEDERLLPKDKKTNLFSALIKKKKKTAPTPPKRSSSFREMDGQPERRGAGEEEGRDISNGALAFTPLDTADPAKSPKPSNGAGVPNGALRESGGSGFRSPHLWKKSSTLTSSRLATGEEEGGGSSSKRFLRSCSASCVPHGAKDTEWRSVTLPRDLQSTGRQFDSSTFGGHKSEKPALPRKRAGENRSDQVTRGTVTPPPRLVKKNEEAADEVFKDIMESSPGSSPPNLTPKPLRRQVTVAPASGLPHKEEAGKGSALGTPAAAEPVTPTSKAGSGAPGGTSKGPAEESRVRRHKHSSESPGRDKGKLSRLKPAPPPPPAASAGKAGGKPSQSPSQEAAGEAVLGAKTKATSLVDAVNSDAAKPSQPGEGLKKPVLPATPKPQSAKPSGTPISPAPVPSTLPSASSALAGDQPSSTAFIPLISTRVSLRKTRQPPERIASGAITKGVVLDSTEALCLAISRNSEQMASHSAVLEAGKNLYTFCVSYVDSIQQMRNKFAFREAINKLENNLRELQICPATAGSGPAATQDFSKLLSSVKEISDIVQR

In the case of `COc1cc(CCOC(=O)/C=C/c2cc(OC)c(O)c(OC)c2)ccc1O` [Compound 8, (E)-4-hydroxy-3-methoxyph-ethyl 3-(4-hydroxy-3,5-dimethoxyphenyl) acrylate], the “Mean inhibition at 10 μM of HVS (%)” value is reported as 69%.
